Antibody variant affinities, Ab-95 light chain, assay 2

From the AlphaSeq antibody data of Engelhart et al. 2022 (doi:10.1038/s41597-022-01779-4), copy in the FLAb collection.

Binding partner: SARS-CoV-2 spike HR2 peptide, sequence PDVDLGDISGINAS.

The variants keep the heavy chain, the linker and the frameworks of Ab-95 (scFv order VH, a 15-residue (Gly4Ser)3 linker, VL).
VH: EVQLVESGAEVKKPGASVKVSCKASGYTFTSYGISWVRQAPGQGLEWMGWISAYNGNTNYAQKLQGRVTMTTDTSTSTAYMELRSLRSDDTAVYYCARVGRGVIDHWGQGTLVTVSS
VL: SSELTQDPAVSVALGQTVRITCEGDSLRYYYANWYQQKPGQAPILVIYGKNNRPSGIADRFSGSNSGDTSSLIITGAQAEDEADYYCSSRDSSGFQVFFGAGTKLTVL

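The parent was found by panning a naive human phage display library on the peptide. Library AAYL52 holds single substitutions and randomly drawn double and triple substitutions in the CDRs. Affinity was read by AlphaSeq, a pooled yeast mating assay with surface-displayed partners. Mating (16 h, 30 °C) was followed by selection of diploids and sequencing of their barcodes. Each replicate has its own calibration line, from reference interactions of the BCL2 family. Each pool was mated in three replicate cultures.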

Changes read parent residue, position, new residue, counted from the first residue of the VL shown. Every variant below is changed at G49 of the VL (sequential numbering). Values are log10 of the apparent Kd in nM; lower means stronger binding. A mean of the replicates is given; it leaves out those without a signal. "no signal" means that the variant was in the library but no mating with the target was seen in any replicate; the authors take this as a sign of poor binding, and no number exists. Parent in this assay: reference entry 2.31, copy in this library 2.25.

The variant A32N+G49W gave no signal (0 of 3 replicates). The variant R28M+G49N+S92F gave 2.29 (3 of 3 replicates). For Y30E+G49Q, the assay gave 2.18 (3 of 3 replicates). With E23L+Y31R+G49M the result was 4.84 (2 of 3 replicates). The variant R28L+G49R gave 4.43 (1 of 3 replicates). With Y29S+G49F+P54A the result was no signal (0 of 3 replicates). For E23Q+Y31A+G49A, the assay gave 1.23 (3 of 3 replicates). The variant D25N+G49P+P54A showed 4.59 (3 of 3 replicates).

The variant Y30H+A32K+G49M gave 3.35 (1 of 3 replicates). With G49F+P54T+S55A the result was no signal (0 of 3 replicates). The variant G49C+Q96K+F98A gave 3.79 (1 of 3 replicates). With Y31I+G49P+P54M the result was no signal (0 of 3 replicates). The variant G49D+P54V+R90C showed 4.15 (3 of 3 replicates). The variant Y31H+G49E gave 1.78 (3 of 3 replicates). For A32T+G49W+N51P, the assay gave 4.10 (1 of 3 replicates). With G49D+P54G+G94K the result was 3.30 (1 of 3 replicates).

With Y30C+G49F+P54F the result was no signal (0 of 3 replicates). The variant Y29P+G49E+Q96E showed 3.06 (3 of 3 replicates). The variant G49C+R53L+S88T gave no signal (0 of 3 replicates). With G49W+P54A+F98G the result was 3.92 (2 of 3 replicates). The variant Y30C+N33K+G49F gave 3.18 (2 of 3 replicates). The variant S26A+A32V+G49P gave 4.50 (2 of 3 replicates). For G49P, the assay gave 3.80 (2 of 3 replicates). The variant Y30I+G49H+K50S showed 3.36 (2 of 3 replicates).

The variant Y31V+G49S+S93Y gave no signal (0 of 3 replicates). For G49R+N51A+F98K, the assay gave no signal (0 of 3 replicates). The variant A32V+G49E+R53N showed no signal (0 of 3 replicates). The variant G24C+D25I+G49T gave 4.38 (2 of 3 replicates). The variant Y31K+G49I+S92G gave 3.45 (3 of 3 replicates). The variant S26A+G49R+S92N gave 5.41 (1 of 3 replicates). With Y31Q+A32I+G49L the result was 5.00 (1 of 3 replicates). The variant G49Y gave 3.39 (3 of 3 replicates).

The variant G49P+K50Q+S55T gave 3.61 (1 of 3 replicates). With G49W+G94S+F98K the result was 3.40 (2 of 3 replicates).

Repeated from above, the 5 best binders with a signal in all replicates:

For E23Q+Y31A+G49A, the assay gave 1.23 (3 of 3 replicates).
For Y31H+G49E, the assay gave 1.78 (3 of 3 replicates).
For Y30E+G49Q, the assay gave 2.18 (3 of 3 replicates).
For R28M+G49N+S92F, the assay gave 2.29 (3 of 3 replicates).
For Y29P+G49E+Q96E, the assay gave 3.06 (3 of 3 replicates).

Nonspecific signal, from three strains lacking the peptide, appeared in 28% of pairings of library AAYL52, centred on 3.91 (5% of these signals below 2.90); values are not corrected for it.